Results as given in publication PMC6351562, “Structure, function, and inhibition of drug reactivating human gut microbial β-glucuronidases” (Scientific Reports, 2019).

System: Bacteroides ovatus GUS (BoGUS)
Details: pNPG as substrate; optimal pH 5.0; apparent value estimated at low pNPG concentrations

With `O=C(O)[C@H]1O[C@@H](Oc2ccc([N+](=O)[O-])cc2)[C@H](O)[C@@H](O)[C@@H]1O` [pNPG, p-nitrophenol-β-D-glucuronide] as the molecule, how does the Km read?
The Km was 1380 ± 10 µM.

And the “kcat (s^−1)” value?
The value was 0.48 ± 0.03^b s^−1.
